Biological target: α2 receptors
Experiment: [3H]yohimbine receptor binding in rat cortex
Conditions: read-out: Ki α2

Compound `CC(CCc1ccccc1)NCC(O)c1ccc(O)c(C(N)=O)c1` (stereo not shown) [Labetalol] has a Ki of 3.54 µM.

Source: patent US6887878B2, “KMST isoeugenol derivatives and pharmaceutical activity” (Ing-Jun Chen, priority 2003, dated 2005)
